“And” between values parts separate entries of the source, which are not always exact repeats. Identical values can stand only once. Like-named read-outs stand apart in the source and are kept apart here.
What was measured:
[1] = test system: D type HBV in primary human hepatocytes; test: microbe, parasite or virus in culture; type: cell-based; details: for EC50: read-out: Inhibitor A EC50; for AVERAGE % INHIBITION: COMPOUND 22 0.00 μM
Experimental: (§1) The mouse liver perfusion was applied to isolate PHHs. The isolated hepatocytes were further purified by Percoll. The cells were resuspended with culture media and seeded into the 96-well plates (6×10^4 cell/well) or 48-well plates (1.2×10^5 cell/well). The PHHs were infected with a D type HBV one day post seeding (day 1).
(§2) On day 2, the test compounds were diluted and added into the cell culture plates. The culture media containing the compounds were refreshed every other day. The cell culture supernatants were collected on day 8 for the HBV DNA and antigen determinations.
(§3) The compounds were tested at 7 concentrations, 3-fold dilution, in triplicate.
(§4) Two compounds were tested at 5×5 matrix, in triplicate plates.
DNA in the culture supernatants harvested on days 8 were isolated with QIAamp 96 DNA Blood Kit (Qiagen-51161). For each sample, 100 μl of the culture supernatants was used to extract DNA. The DNA was eluted with 100 μl, 150 μl or 180 μl of AE. HBV DNA in the culture supernatants was quantified by qPCR. The combination effect was analyzed by the MacSynergy software. The primers are described below.

[2] = test system: HBV rcDNA in HepDE19 cells; test: HepDE19 cell culture system, rcDNA quantitation using bDNA assay, MacSynergy II; type: cell-based, human hepatoma cell line
Experimental: In vitro combination studies were conducted using the method of Prichard and Shipman (Prichard M N, and Shipman C Jr., Antiviral Research, 1990, 14 (4-5), 181-205; and Prichard M N, et. al., MacSynergy II). HepDE19 cell culture system is a HepG2 (human hepatocarcinoma) derived cell line that supports HBV DNA replication and cccDNA formation in a tetracycline (Tet)-regulated manner and produces HBV rcDNA and a detectable reporter molecule dependent on the production and maintenance of cccDNA (Guo et al 2007. J. Virol 81:12472-12484). […] Following a 7 day-incubation of cells with compound combinations, the level of rcDNA present in the inhibitor-treated wells was measured using a Quantigene 2.0 bDNA assay kit (Affymetrix, Santa Clara, Calif.) with HBV specific custom probe set and manufacturers instructions. […] The RLU data from the single compound treated cells were analyzed using XL-Fit module in Microsoft Excel to determine EC50 values using a 4-parameter curve fitting algorithm. Concurrently, the effect of compounds on cell viability was assessed using replicate plates, plated at a density of 5,000 cells/well and incubated for 4 days, to determine the ATP content as a measure of cell viability using the cell-titer glo reagent (CTG; Promega Corporation, Madison, Wis.) as per manufacturer's instructions. […]

[3] = test system: D type HBV in primary human hepatocytes (HBeAg); type: cell-based; details: for AVERAGE % INHIBITION: COMPOUND 22 0.00 μM
Experimental: as §1, §2, §3, §4
(§5) HBsAg/HBeAg in the culture supernatants harvested on days 8 were measured by the HBsAg/HBeAg ELISA kit (Autobio) according to the manual. The samples were diluted with PBS to get the signal in the range of the standard curve. The inhibition rates were calculated with the formula below. The combination effect was analyzed by the MacSynergy software.
% Inh. HBeAg=[1-HBeAg quantity of sample/HBV quantity of DMSO control]×100.

[4] = test system: D type HBV in primary human hepatocytes (HBsAg); type: cell-based; details: for AVERAGE % INHIBITION: COMPOUND 22 0.00 μM
Experimental: as §1, §2, §3, §4, §5
% Inh. HBsAg=[1-HBsAg quantity of sample/HBV quantity of DMSO control]×100.

[5] = Hepatitis B virus, Hepatocyte, read-out: AVERAGE % […] DNA
[6] = PHH, determined in an earlier separate experiment

## CC(C)OC(=O)OCOP(=O)(CO[C@H](C)Cn1cnc2c(N)ncnc21)OCOC(=O)OC(C)C.O=C(O)/C=C/C(=O)O [TDF, tenofovir disoproxil fumarate, reference compound]
[1]; 3 replicates, Compound 24 0.00 nM, TDF nM: 10.00, 3.33, 1.11, 0.37, 0.12
  AVERAGE % INHIBITION HBV DNA: 2.49%
[1]; [5]
  inhibition at 0.00012 µM: -19.3%
  inhibition at 0.00037 µM: -4.64%
  inhibition at 0.00333 µM: 24.9%
  inhibition at 0.01 µM: 22%
  inhibition at […]: 24.4%
[1]; Hepatitis B virus, Hepatocyte
  EC50: 5.16 nM
[1]
  EC50: 5.62 nM

## C=C1[C@H](CO)[C@@H](O)C[C@@H]1n1cnc2c(=O)[nH]c(N)nc21 [Entecavir]
[2]; 4 replicates, ETV 0.500 nM, SIRNA-NP ng/mL by row: r8 25, r9 8.333, r10 2.778, r11 0.926, r12 0.309, r13 0
  AVERAGE % INHIBITION (rcDNA): 10.24%
[2]; expected from additive interaction, ETV 0.5 nM, SIRNA-NP ng/mL by row: r30 25, r31 8.333, r32 2.778, r33 0.926, r34 0.309, r35 0
  ADDITIVE INHIBITION: 10.24%

## IFNα2a: pegylated interferon alpha 2a [reference compound]
[1]; HBV DNA endpoint, PHH, determined in an earlier separate experiment (Table 18d)
  Inhibitor A EC50: 2.154 IU/mL
[1]; HBV DNA, determined in an earlier separate experiment
  Inhibitor A EC50: 2.154 IU/mL
[1]; IFNα2a 0.12 IU/mL
  AVERAGE % INHIBITION: −18.56%
[1]; IFNα2a 0.37 IU/mL alone
  AVERAGE % INHIBITION HBV DNA: 22.81% and 38.46%
[1]; IFNα2a 0.37 IU/mL
  AVERAGE % INHIBITION: 6.59%
[1]; IFNα2a 1.11 IU/mL alone
  AVERAGE % INHIBITION HBV DNA: 32.66% and 43.03%
[1]; IFNα2a 1.11 IU/mL
  AVERAGE % INHIBITION: 28.08%
[1]; IFNα2a 3.33 IU/mL alone
  AVERAGE % INHIBITION HBV DNA: 46.92% and 59.88%
[1]; IFNα2a 3.33 IU/mL
  AVERAGE % INHIBITION: 52.39%
[1]; IFNα2a 10.00 IU/mL alone
  AVERAGE % INHIBITION HBV DNA: 58.66% and 61.87%
[1]; IFNα2a 10.00 IU/mL
  AVERAGE % INHIBITION: 59%
[1]; [6]
  Inhibitor A EC50 HBV DNA: 2.154 IU/mL
[3]
  Inhibitor A EC50: 10.24 IU/mL
  Inhibitor A EC50 HBeAg: 10.24 IU/mL
[3]; IFNα2a 0.12 IU/mL
  AVERAGE % INHIBITION: 7.42%
[3]; IFNα2a 0.37 IU/mL alone
  AVERAGE % INHIBITION HBeAg: −12.17% and −2.24%
[3]; IFNα2a 0.37 IU/mL
  AVERAGE % INHIBITION: 1.78%
[3]; IFNα2a 1.11 IU/mL
  AVERAGE % INHIBITION: 15.27%
[3]; IFNα2a 3.33 IU/mL alone
  AVERAGE % INHIBITION HBeAg: 6.47% and 14.38%
[3]; IFNα2a 3.33 IU/mL
  AVERAGE % INHIBITION: 17.16%
[3]; IFNα2a 10.00 IU/mL alone
  AVERAGE % INHIBITION HBeAg: 17.32% and 32.8%
[3]; IFNα2a 10.00 IU/mL
  AVERAGE % INHIBITION: 30.13%
[4]; HBsAg endpoint, PHH, determined in an earlier separate experiment (Table 18d)
  Inhibitor A EC50: 13.8 IU/mL
[4]; HBsAg, determined in an earlier separate experiment
  Inhibitor A EC50: 13.8 IU/mL
[4]; IFNα2a 0.12 IU/mL alone
  AVERAGE % INHIBITION HBsAg: −4.08% and 1.56%
[4]; IFNα2a 0.12 IU/mL
  AVERAGE % INHIBITION: −1.67%
[4]; IFNα2a 0.37 IU/mL alone
  AVERAGE % INHIBITION HBsAg: 2.74% and 6.9%
[4]; IFNα2a 0.37 IU/mL
  AVERAGE % INHIBITION: 4.6%
[4]; IFNα2a 1.11 IU/mL alone
  AVERAGE % INHIBITION HBsAg: 10.57% and 14.91%
[4]; IFNα2a 1.11 IU/mL
  AVERAGE % INHIBITION: 8.8%
[4]; IFNα2a 3.33 IU/mL alone
  AVERAGE % INHIBITION HBsAg: 18.32% and 12.8%
[4]; IFNα2a 3.33 IU/mL
  AVERAGE % INHIBITION: 10.2%
[4]; IFNα2a 10.00 IU/mL alone
  AVERAGE % INHIBITION HBsAg: 22.77% and 24.94%
[4]; IFNα2a 10.00 IU/mL
  AVERAGE % INHIBITION: 20.1%
[4]; [6]
  Inhibitor A EC50 HBsAg: 13.8 IU/mL

Reference: patent US20220265817A1, “THERAPEUTIC COMPOSITIONS AND METHODS FOR TREATING HEPATITIS B” (priority 2017, published 2022)
